Data published in patent publication US20160052926A1, “NOVEL PYRIMIDINE AND PYRIDINE COMPOUNDS AND USAGE THEREOF” (HUTCHISON MEDIPHARMA LIMITED, priority 2013, published 2016).

By UniProt entry, the sequences of proteins in these tests, tags left out. Residues count along the entry.
UniProt P11362, 22-822: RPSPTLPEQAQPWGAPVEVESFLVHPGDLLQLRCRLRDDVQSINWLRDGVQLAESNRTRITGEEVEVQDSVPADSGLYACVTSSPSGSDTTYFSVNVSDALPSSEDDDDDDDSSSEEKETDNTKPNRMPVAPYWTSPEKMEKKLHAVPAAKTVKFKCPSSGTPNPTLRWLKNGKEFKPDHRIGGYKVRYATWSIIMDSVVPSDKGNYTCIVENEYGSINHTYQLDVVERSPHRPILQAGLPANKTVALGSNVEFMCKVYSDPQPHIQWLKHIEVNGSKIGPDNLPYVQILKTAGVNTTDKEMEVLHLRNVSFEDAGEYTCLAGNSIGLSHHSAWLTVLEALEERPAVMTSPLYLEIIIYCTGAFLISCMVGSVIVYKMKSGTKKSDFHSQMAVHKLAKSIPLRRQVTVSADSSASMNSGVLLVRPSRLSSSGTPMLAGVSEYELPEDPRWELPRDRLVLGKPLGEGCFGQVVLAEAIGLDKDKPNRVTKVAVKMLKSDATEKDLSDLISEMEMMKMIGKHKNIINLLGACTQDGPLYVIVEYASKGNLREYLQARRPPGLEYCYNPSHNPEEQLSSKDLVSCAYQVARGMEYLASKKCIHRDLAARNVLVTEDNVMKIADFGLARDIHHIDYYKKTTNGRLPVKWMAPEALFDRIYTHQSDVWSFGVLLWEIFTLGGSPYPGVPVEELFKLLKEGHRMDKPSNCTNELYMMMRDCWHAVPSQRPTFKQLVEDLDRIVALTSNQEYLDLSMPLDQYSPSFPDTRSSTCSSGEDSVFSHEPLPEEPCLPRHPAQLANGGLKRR

Target: Recombinant human FGFR1 (Homo sapiens, UniProt P11362)
Assay: Transcreener Kinase Assay of FGFR1
Format: biochemical
Details: read-out: FGFR1 (FP) IC50
Protocol: Transcreener Kinase Assay of FGFR1
Prepare Solution • Compounds were solved in DMSO and were diluted with assay buffer to 5 folds of final concentration keeping the DMSO concentration at 5%. Further dilution are needed to make final concentrations are at 1, 0.33, 0.11, 0.037, 0.012, 0.004, 0.0014, 0.0005 μM; (the final concentration of DMSO is 1%). • Enzyme/Substrate stock Preparation: Recombinant human FGFR1 and Poly E4Y are both diluted in assay buffer.
Enzymatic Reaction • In a 96-well plate, Add 5 μL of compound or control. (positive control: 5 μL of 5% DMSO; negative control: 5 μL of 500 mM EDTA) into desired wells; • Add 10 μL of Enzyme/Substrate stock into each well; • Add 10 μL of ATP Diluents to initiate the enzyme reaction and votex the plate immediately on a plate shaker; • For the wells to make standard curve, add 5 μL of 5% DMSO, 10 μL of assay buffer and 10 μL of ATP standard curve stock. • Incubate the plate for 45 min at 28[…] on a plate shaker in a low speed. […]
• [ADP] in Compound well represents the ADP concentration in compound well. • [ADP] in Positive control well represents the ADP concentration in 5% DMSO well • Conversion of mP value to ADP concentration is calculated based on the formula which determined by standard curve. And mP value is measured by following the instruction provided by BellBrook Labs. […] IC50: calculated using XL-Fit 2.0 software.

Work on CCS(=O)(=O)n1cc(Nc2ncc(CCc3cc(C(=O)NC)cc(OC)c3F)cn2)cn1 [Compound 140, 3-(2-(2-(1-(ethylsulfonyl)-1H-pyrazol-4-ylamino)pyrimidin-5-yl)ethyl)-4-fluoro-5-methoxy-N-methylbenzamide] yielded an IC50 of 38 nM.
